In patent US7547521B2, “Heteromultimeric ion channel receptor and uses thereof” (McGill University, priority 2000, dated 2009) one finds EC50 data, which are given here for 1 substance.

Protein sequences, listed by entry. Tags and fused reporters are not part of them. Lines headed by an entry give the natural chain unless they say otherwise; changes in a name come on top.
UniProt Q9UHC3: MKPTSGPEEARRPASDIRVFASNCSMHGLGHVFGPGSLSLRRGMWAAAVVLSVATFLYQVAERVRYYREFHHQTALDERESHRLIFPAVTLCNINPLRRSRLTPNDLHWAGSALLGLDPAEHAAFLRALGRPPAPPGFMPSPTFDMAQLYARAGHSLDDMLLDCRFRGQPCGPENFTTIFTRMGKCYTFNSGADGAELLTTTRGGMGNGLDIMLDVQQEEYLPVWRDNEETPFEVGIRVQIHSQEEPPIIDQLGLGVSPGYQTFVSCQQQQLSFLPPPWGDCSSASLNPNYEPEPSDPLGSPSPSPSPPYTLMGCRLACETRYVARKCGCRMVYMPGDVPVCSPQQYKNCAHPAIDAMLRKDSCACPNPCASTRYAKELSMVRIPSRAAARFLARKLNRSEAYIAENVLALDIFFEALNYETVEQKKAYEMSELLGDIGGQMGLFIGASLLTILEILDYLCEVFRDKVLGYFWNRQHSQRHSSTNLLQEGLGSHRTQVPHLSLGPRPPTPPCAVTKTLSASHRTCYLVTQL

In this assay the target is T1, human ASIC2S.2 (ASIC2A+3) receptors (Homo sapiens, UniProt Q16515+Q9UHC3, A14P/I85V/M358I/P13Q).
T1 construct: allowing RT-PCR amplified full length nucleic acids to be directionally subcloned into pcDNA3; expressed in transfected cells; host or cells: Xenopus laevis oocytes (nuclear injection of pcDNA3 cDNAs)
T1 sequence (Q16515 1-512): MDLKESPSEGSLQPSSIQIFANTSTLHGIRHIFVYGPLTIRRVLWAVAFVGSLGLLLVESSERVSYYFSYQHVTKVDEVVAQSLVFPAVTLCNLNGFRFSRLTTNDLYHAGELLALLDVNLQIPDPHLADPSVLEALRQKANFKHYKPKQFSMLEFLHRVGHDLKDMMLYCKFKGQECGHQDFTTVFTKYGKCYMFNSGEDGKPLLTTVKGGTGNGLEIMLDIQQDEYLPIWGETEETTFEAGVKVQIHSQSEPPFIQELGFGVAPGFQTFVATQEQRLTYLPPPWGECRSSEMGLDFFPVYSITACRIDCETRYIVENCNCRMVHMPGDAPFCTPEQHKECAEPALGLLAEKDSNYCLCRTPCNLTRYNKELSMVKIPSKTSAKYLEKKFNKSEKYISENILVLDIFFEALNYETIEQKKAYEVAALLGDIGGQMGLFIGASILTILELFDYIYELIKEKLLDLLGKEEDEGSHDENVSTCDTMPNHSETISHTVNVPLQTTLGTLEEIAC
T1 sequence (Q9UHC3 1-531 P13Q/A14P/I85V/M358I): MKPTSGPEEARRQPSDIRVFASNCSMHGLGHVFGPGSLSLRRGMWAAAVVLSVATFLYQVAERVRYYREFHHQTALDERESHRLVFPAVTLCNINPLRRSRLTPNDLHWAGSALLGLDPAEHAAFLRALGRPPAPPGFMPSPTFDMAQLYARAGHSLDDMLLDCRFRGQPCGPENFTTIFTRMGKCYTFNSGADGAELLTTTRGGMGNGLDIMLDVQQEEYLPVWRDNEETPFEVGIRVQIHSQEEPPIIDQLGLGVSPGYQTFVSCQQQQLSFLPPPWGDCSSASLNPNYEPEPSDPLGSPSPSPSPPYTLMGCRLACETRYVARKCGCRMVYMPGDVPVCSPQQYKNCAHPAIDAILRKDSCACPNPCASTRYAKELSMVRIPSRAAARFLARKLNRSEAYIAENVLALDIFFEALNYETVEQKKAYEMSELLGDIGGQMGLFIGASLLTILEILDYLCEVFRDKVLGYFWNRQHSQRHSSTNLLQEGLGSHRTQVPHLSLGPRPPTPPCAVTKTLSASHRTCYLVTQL
The experiment in a line: Two-electrode voltage clamp of proton-gated currents in Xenopus oocytes expressing human ASIC2S.2. To be noted: pH 4, % of response measured in presence of 10^-8 M peptide, read-out: EC50 for potentiation of currents induced by pH 4. In kind it is cell-based. The protocol: According to method 1 described above, nuclei of Xenopus oocytes are injected with ASIC2A and ASIC3 cDNAs separately subcloned into pcDNA3 expression vector (1-5 ng). Control oocytes are injected with H2O. Oocytes are maintained at 18° C. in modified Barth's solution. Proton-activated currents are measured by two-electrode voltage clamp 1-3 days after injection. During voltage clamp (−60 mV/−100 mV)), oocytes are bathed in 116 mM NaCl, 2 mM KCl, 1.8 mM CaCl2, 10 mM acetic acid and 5 mM Hepes (pH 7.4 with NaOH). To determine proton-gating, bath solution is quickly switched to a solution of pH<7.4 for 10 sec, then returned to bath solution for washout. The stimulating solution is prepared by lowering the pH of the original bath solution with hydrochloric acid. The osmolality of the solutions is verified with an osmometer and corrected with mannitol or choline chloride. To document ionic selectivity, NaCl is replaced with LiCl or KCl. Current-voltage relationships are determined by stepping from a holding potential of −60 mV to potentials between −100 and +60 mV for 10 seconds before and during stimulation with low pH solution. FIGS. 1A (human) and 1B (rat) compare proton-activated currents carried by homomultimeric ASIC2A and ASIC3 receptors to the heteromultimeric ASIC-2S.2 receptors (ASIC2a+3). […] Species differences are also noteworthy. […]
On the technique in general: In two-electrode clamp one electrode senses voltage and the other passes current.

Regarding FMRFamide, the half-maximal effective concentration (EC50) (commonly the midpoint of the concentration-response curve) turned out to be 13 µM.
